# Measured values published in PubChem BioAssay AID624125 (The Scripps Research Institute Molecular Screening Center, 2012).
# By UniProt entry, the sequences of proteins in these tests, tags left out.
# UniProt P08173, whole entry: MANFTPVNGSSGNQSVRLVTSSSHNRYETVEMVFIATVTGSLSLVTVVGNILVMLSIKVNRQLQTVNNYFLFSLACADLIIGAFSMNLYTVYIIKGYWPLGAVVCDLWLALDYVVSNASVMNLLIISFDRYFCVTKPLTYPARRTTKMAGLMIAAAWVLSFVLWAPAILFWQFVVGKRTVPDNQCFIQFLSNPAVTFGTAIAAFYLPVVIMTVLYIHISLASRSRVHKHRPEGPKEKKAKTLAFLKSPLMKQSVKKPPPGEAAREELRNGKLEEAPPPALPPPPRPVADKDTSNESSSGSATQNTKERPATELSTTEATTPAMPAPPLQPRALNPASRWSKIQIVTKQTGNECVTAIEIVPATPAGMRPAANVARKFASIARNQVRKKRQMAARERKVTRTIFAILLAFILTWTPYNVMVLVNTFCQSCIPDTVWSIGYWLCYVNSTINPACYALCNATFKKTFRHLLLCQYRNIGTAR
# Only a part is listed here, and it is no random draw. Calls of active or inactive are those of the source.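 Rule for the calls: active = inhibition above its plate's cutoff, the mean inhibition of sample wells plus 3 SD (cut at about 27% in these data); inactive = the rest.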
# Molecular target: Muscarinic acetylcholine receptor M4 (Homo sapiens) (UniProt P08173)
# Assay: CHRM4 blockers of acetylcholine calcium response – CHO cells, Fluo-8 calcium fluorescence, primary screen (AID 624125);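 note: 0% = acetylcholine EC80 with DMSO and 100% = DMSO without agonist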
# Conditions: CHO-hM4 cells, ACh EC80, Fluo-8 calcium fluorescence; at 3 µM; stronger effect = higher value
row,Structure (SMILES),inhibition
1,CC1=NCCc2c1[nH]c1ccccc21.O=[N+]([O-])c1cc([N+](=O)[O-])c(O)c([N+](=O)[O-])c1,inactive: 5.54%
2,O=C(O)c1cccc(Nc2c([N+](=O)[O-])cc([N+](=O)[O-])cc2[N+](=O)[O-])c1,inactive: 2.47%
3,CP(=O)(Nc1cccc(Br)c1)Oc1ccccc1 (stereo not drawn),inactive: 2.95%
4,Cc1cc(C)cc(OP(C)(=O)Nc2ccccn2)c1 (stereo not drawn),inactive: -0.52%
5,Cc1ccc(C)c(NP(C)(=O)Oc2ccccc2)c1 (stereo not drawn),inactive: -6.39%
6,COc1ccccc1OP(C)(=O)Nc1cccc(Br)c1 (stereo not drawn),inactive: -4.36%
7,COc1cc(C(=O)NCC2(N3CCOCC3)CCCCC2)cc(Cl)c1OC(C)C,inactive: 9.11%
8,Cc1cc(C)cc(OP(C)(=O)Nc2ccc(C)cc2C)c1 (stereo not drawn),inactive: -6.64%
9,CCOC(=O)c1ccc(NP(C)(=O)Oc2cc(C)cc(C)c2)cc1 (stereo not drawn),inactive: -0.25%
10,O=[N+]([O-])c1cc([N+](=O)[O-])c(-c2cnn(-c3ccccc3)c2)c([N+](=O)[O-])c1,inactive: 10.8%
11,Cc1nc2ccc3ccccc3c2s1.O=[N+]([O-])c1cc([N+](=O)[O-])c(O)c([N+](=O)[O-])c1,inactive: -6.99%
12,O=[N+]([O-])c1cc([N+](=O)[O-])c(-n2nnc3ccccc32)c([N+](=O)[O-])c1,inactive: -4.22%
13,CN(Cc1cccnc1)C(=O)COc1ccc(Cl)c(Cl)c1.O=[N+]([O-])c1cc([N+](=O)[O-])c(O)c([N+](=O)[O-])c1,inactive: -9.23%
14,COc1ccccc1OP(C)(=O)Nc1c(C)cccc1C (stereo not drawn),inactive: -4.59%
15,CP(=O)(Nc1ccc(SC(F)(F)F)cc1)Oc1ccccc1 (stereo not drawn),inactive: 1.23%
16,CCCOc1ccc(NP(C)(=O)Oc2ccc(Cl)cc2)cc1 (stereo not drawn),inactive: -3.34%
17,COc1ccc(-c2ccccn2)cc1.O=[N+]([O-])c1cc([N+](=O)[O-])c(O)c([N+](=O)[O-])c1,inactive: 0.08%
18,CCOC(=O)C(CC)C1=NC(C)(C)Cc2ccccc21.O=[N+]([O-])c1cc([N+](=O)[O-])c(O)c([N+](=O)[O-])c1 (stereo not drawn),inactive: -8.21%
19,O=[N+]([O-])c1cc([N+](=O)[O-])c(Nc2nnnn2CCO)c([N+](=O)[O-])c1,inactive: 5.44%
20,CC1=C2N=C(C=C3N=C(C(C)=C4[N-][C@@](C)([C@@H]5N=C1[C@](C)(CCC(=O)NC[C@@H](C)OP(=O)([O-])O[C@H]1[C@@H](O)[C@@H](n6cnc7cc(C)c(C)cc76)O[C@@H]1CO)[C@H]5CC(N)=O)[C@@](C)(CC(N)=O)[C@@H]4CCC(N)=O)[C@@](C)(CC(N)=O)[C@@H]3CCC(N)=O)C(C)(C)[C@@H]2CCC(N)=O.[C-]#N.[Co+3],inactive: -0.53%
21,CN(C)C1(CNC(=O)c2ccc(S(C)(=O)=O)cc2)CCCCC1,inactive: -9.02%
22,CP(=S)(Nn1cnnc1)Oc1ccccc1 (stereo not drawn),inactive: -1.28%
23,COc1ccccc1OP(C)(=O)Nc1ccccc1 (stereo not drawn),inactive: -2.17%
24,CP(=O)(Nc1ccccc1Br)Oc1ccccc1 (stereo not drawn),inactive: -2.16%
25,CCCCOc1ccc(C(=O)NCC2(N3CCCCC3)CCCCC2)cc1OC,inactive: -1.79%
26,CCOP(C)(=S)SCC(=O)NC(C)C(=O)O (stereo not drawn),inactive: -7.43%
27,O=[N+]([O-])c1cc([N+](=O)[O-])c(O)c([N+](=O)[O-])c1.c1ccc(Oc2ccncc2)cc1,inactive: -5.29%

row,Structure (SMILES),inhibition
1,CCOC(=O)c1ccc(NP(C)(=O)Oc2ccc(OC)cc2)cc1 (stereo not drawn),inactive: 2.81%
2,CP(=O)(Nc1ccccn1)Oc1ccc(Cl)cc1 (stereo not drawn),inactive: -9.43%
3,CP(=O)(Oc1ccccc1)OC(c1ccccc1)C(F)(F)F (stereo not drawn),inactive: 0.94%
4,CP(=O)(Nc1ccc(SC(F)(F)F)cc1)Oc1ccc(Cl)cc1 (stereo not drawn),inactive: -2.09%
5,Cc1cccc(C)c1OP(C)(=O)Nc1ccc(SC(F)(F)F)cc1 (stereo not drawn),inactive: -6.61%
6,Cc1ccc(Nc2c([N+](=O)[O-])cc([N+](=O)[O-])cc2[N+](=O)[O-])cc1,inactive: -6.03%
7,Cc1cc(C)cc(OP(C)(=O)Nc2ccc(SC(F)(F)F)cc2)c1 (stereo not drawn),inactive: -2.32%
8,CCc1ccc(OP(C)(=O)N2CCN(c3ccc([N+](=O)[O-])cc3)CC2)cc1 (stereo not drawn),inactive: 5.76%
9,CP(=O)(NC(=O)Nc1ccccc1)Oc1ccccc1 (stereo not drawn),inactive: -0.53%
10,COc1ccccc1-c1ccccn1.O=[N+]([O-])c1cc([N+](=O)[O-])c(O)c([N+](=O)[O-])c1,inactive: -6.34%
11,O=C(OC1CN2CCC1CC2)C12CC3CC(CC(C3)C1)C2 (stereo not drawn),active: 95.1%
12,CCOC(=O)c1ccc(NP(C)(=O)Oc2ccccc2)cc1 (stereo not drawn),inactive: -0.12%
13,Cc1ccc(NP(C)(=O)Oc2ccccc2)c(C)c1 (stereo not drawn),inactive: -0.86%
14,COc1ccccc1OP(C)(=O)Nc1ccc(C)cc1 (stereo not drawn),inactive: -3.56%
15,COc1ccc(OP(C)(=O)Nc2cccc(F)c2)cc1 (stereo not drawn),inactive: 4.16%
16,COc1ccccc1OP(C)(=O)Nc1cc(Cl)ccc1C (stereo not drawn),inactive: -1.51%
17,Cc1cc(C)cc(OP(C)(N)=O)c1 (stereo not drawn),inactive: -14.9%
18,O=[N+]([O-])c1cc([N+](=O)[O-])c(Nc2cccnc2)c([N+](=O)[O-])c1,inactive: -5.7%
19,COc1cc(C(=O)NCC2(N3CCOCC3)CCCCC2)ccc1OCC(C)C,inactive: -7.15%
20,Cc1cccc(C)c1OP(C)(N)=O (stereo not drawn),inactive: -12.1%
21,CC(C)(C)c1ccc(OP(C)(=O)Nc2ccc(SC(F)(F)F)cc2)cc1 (stereo not drawn),inactive: -11%
22,O=[N+]([O-])c1ccc2c(c1)C=Nc1ccccc1O2,inactive: 3.85%
23,CP(=O)(OCCOc1ccccc1)OCCOc1ccccc1,inactive: 4.75%
24,CP(=O)(Nc1ccc(Cl)cc1Cl)Oc1ccccc1 (stereo not drawn),inactive: -5.99%
25,CCCCCCCCCCCCCCCC1C[N+](C)(C)CCOP(C)(=O)O1 (stereo not drawn),inactive: 9.84%
26,Cc1cc(C)cc(OP(C)(=O)Nc2cccc(C(F)(F)F)c2)c1 (stereo not drawn),inactive: -7.44%
